# scFv variants of Ab-14 (light chain) against a SARS-CoV-2 spike peptide

Reference: Li et al. 2023, doi:10.1038/s41467-023-39022-2. File: FLAb, binding data.

The target is the same throughout: PDVDLGDISGINAS, from the HR2 region of SARS-CoV-2 spike.

Each scFv is VH, the linker GGGGSGGGGSGGGGS, VL, as in the parent Ab-14, and differs from it in the CDRs of the light chain only.
VH: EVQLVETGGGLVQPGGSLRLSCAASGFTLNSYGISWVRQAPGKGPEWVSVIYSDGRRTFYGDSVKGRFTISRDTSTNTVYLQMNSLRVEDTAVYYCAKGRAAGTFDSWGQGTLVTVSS
VL: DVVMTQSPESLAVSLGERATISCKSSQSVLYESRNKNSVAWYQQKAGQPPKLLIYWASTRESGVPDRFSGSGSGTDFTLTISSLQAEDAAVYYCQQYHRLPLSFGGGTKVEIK

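The parent was found by panning a naive human phage display library on the peptide. This is the validation round: designs drawn from the data on random variants, tested in the same kind of assay. Group labels follow the data file (Ctrl: baseline library sampled from a position-specific scoring matrix, with some repeated check sequences; GP: Gaussian process model; HC: hill climbing; Gen: genetic algorithm; Gibbs: Gibbs sampling; a sequence that several methods proposed may carry one label only). AlphaSeq pools MATa yeast showing the antibodies with MATalpha yeast showing the peptide. The frequency of each diploid, read from paired DNA barcodes, reflects how well the two displayed proteins bind. Each replicate has its own calibration line, from reference interactions of the BCL2 family. Mating was done six times.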

The whole VL of each variant is written out. This list holds designs with at most six substitutions. Scale: log10 of Kd in nM, estimated from mating counts; low values are strong binders. The mean shown is taken over the replicates in which the pair was detected. "nd" means that the variant was in the library but no mating with the target was seen in any replicate; the authors take this as a sign of poor binding, and no number exists. Entries are sorted by rising average, undetected variants last.

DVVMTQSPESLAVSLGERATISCKLSQSQLYESRNKNNVAWYQQKAGQPPKLLIYNASTRESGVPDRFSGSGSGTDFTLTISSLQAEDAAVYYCQQYHRLPLSFGGGTKVEIK [GP_Gen]: -0.61 (6 of 6 replicates).
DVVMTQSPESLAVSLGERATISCKSFQSKLYESRNKNSVAWYQQKAGQPPKLLIYDASTRESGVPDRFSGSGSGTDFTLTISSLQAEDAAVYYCQQYHRLPLSFGGGTKVEIK [Ctrl]: 0.24 (6 of 6 replicates).
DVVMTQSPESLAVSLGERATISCKLLQSVLLESRNSNSVAWYQQKAGQPPKLLIYNASTRELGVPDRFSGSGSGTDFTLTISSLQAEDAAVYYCQQYHRLPLSFGGGTKVEIK [GP_Gibbs]: 0.24 (6 of 6 replicates).
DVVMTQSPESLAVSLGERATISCKSSQSVLDESRNKDSVAWYQQKAGQPPKLLIYNASTRESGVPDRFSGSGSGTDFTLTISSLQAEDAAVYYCQQYHRLPLSFGGGTKVEIK [Ctrl]: 0.30 (6 of 6 replicates).
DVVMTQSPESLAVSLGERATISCKVSTSELEESRNKNSVAWYQQKAGQPPKLLIYWASVREEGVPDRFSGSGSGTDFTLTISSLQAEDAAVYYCQQYHRLPLSFGGGTKVEIK [GP_Gibbs]: 0.60 (6 of 6 replicates).
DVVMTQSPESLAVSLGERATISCKSSISMLYESRNKNSVAWYQQKAGQPPKLLIYEASTRESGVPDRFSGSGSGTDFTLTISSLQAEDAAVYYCQQYHRLPLMFGGGTKVEIK [GP_HC]: 0.81 (6 of 6 replicates).
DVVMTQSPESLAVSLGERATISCKLQQSFLYESRNKNSVAWYQQKAGQPPKLLIYEASTRLSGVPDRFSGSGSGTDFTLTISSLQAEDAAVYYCQQYHRLPLSFGGGTKVEIK [GP_Gen]: 0.92 (6 of 6 replicates).
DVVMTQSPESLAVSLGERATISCKSLQSVLQESRNKNSVAWYQQKAGQPPKLLIYHASTREDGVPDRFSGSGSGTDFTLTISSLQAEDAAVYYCQQYHRLPLSFGGGTKVEIK [GP_HC]: 0.96 (6 of 6 replicates).
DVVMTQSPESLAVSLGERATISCKFSQKVNYETRTKNSVAWYQQKAGQPPKLLIYNASTRESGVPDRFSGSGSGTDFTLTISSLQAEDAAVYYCQQYHRLPLSFGGGTKVEIK [GP_HC]: 1.37 (6 of 6 replicates).
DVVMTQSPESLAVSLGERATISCKSSQSVLYESQNKNSVAWYQQKAGQPPKLLIYWALTRESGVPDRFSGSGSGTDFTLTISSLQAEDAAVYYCQQYHRLPLSFGGGTKVEIK [Ctrl]: 1.54 (1 of 6 replicates).
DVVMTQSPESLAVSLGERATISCKLMQSELYESRMKNSVAWYQQKAGQPPKLLIYNASTRESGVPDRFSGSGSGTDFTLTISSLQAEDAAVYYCQQYHRLPLSFGGGTKVEIK [GP_Gen]: 1.56 (4 of 6 replicates).
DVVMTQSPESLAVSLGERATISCKSSLSVLYESHNKNSVAWYQQKAGQPPKLLIYWASTRESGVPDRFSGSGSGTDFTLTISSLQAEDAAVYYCQQYHRLPLSFGGGTKVEIK [Ctrl]: 1.90 (6 of 6 replicates).
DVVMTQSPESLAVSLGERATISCVSSQSVLYESRNSNSVAWYQQKAGQPPKLLIYWATTRESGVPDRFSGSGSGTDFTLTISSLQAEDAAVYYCQQYHRLPLSFGGGTKVEIK [Ctrl]: 1.92 (2 of 6 replicates).
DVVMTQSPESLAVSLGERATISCKSSQSVLAESRNKNSVAWYQQKAGQPPKLLIYWASTRESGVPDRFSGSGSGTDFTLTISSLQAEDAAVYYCQQHHRLPLSFGGGTKVEIK [Ctrl]: 2.31 (3 of 6 replicates).
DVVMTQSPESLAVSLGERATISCKSHQSVYYESRNKNSVAWYQQKAGQPPKLLIYWASTRESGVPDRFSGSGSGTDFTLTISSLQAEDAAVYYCQQYHVLPLSFGGGTKVEIK [Ctrl]: 2.32 (4 of 6 replicates).
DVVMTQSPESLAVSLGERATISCKKSQSVGYESRNKNSVAWYQQKAGQPPKLLIYSESTRESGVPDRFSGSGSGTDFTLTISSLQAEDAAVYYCQQYHRLPLSFGGGTKVEIK [Ctrl]: nd (0 of 6 replicates).
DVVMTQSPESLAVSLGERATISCKSSQSVLYESRNQNHVAWYQQKAGQPPKLLIYWASTRESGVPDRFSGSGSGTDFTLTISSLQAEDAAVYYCQQPHRWPLSFGGGTKVEIK [Ctrl]: nd (0 of 6 replicates).
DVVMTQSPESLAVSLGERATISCKSSQSVLYEFRMKNSVAWYQQKAGQPPKLLIYWASTRESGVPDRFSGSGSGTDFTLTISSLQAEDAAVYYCQQYRRLPLSFGGGTKVEIK [Ctrl]: nd (0 of 6 replicates).
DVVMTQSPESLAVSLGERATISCKSSQSVLYESTNLNSVAWYQQKAGQPPKLLIYWAYTRESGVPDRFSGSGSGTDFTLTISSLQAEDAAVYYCQQYIRLPLSFGGGTKVEIK [Ctrl]: nd (0 of 6 replicates).

The opening 3 entries, copied out:

VL	group	mean log10 Kd (nM)	seen in
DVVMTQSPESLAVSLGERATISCKLSQSQLYESRNKNNVAWYQQKAGQPPKLLIYNASTRESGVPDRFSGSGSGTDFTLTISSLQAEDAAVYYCQQYHRLPLSFGGGTKVEIK	GP_Gen	-0.61	6/6
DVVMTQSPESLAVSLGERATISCKSFQSKLYESRNKNSVAWYQQKAGQPPKLLIYDASTRESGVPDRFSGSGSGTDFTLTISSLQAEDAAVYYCQQYHRLPLSFGGGTKVEIK	Ctrl	0.24	6/6
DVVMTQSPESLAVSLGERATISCKLLQSVLLESRNSNSVAWYQQKAGQPPKLLIYNASTRELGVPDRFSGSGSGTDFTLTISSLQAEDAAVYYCQQYHRLPLSFGGGTKVEIK	GP_Gibbs	0.24	6/6

The range of this assay differs from that of the first round, and the authors advise against merging the two. As a blank, each scFv also met three strains without target: over all light chain designs, 4% of these pairings were detected, typically at 2.64 and seldom below 1.59. The parent sequence was in this pool as ten entries: three were never detected, three once, and four in most replicates, with averages from 0.34 to 2.37. The authors' rule: three or more of the six replicates give a measured affinity, fewer mean a poor binder.